Values of other authors in US7326706B2, “Pyrazine modulators of cannabinoid receptors” (Bristol-Myers Squibb Company, priority 2003, dated 2008).

Conditions: chronic administration for two weeks

SMILES: Cc1c(C(=O)NN2CCCCC2)nn(-c2ccc(Cl)cc2Cl)c1-c1ccc(I)cc1 [AM-251]
- adipose tissue mass: decreased adipose tissue mass
